Ab-91 heavy chain CDR variants: yeast mating affinities

The target is the same throughout: PDVDLGDISGINAS, from the HR2 region of SARS-CoV-2 spike.

Parent: Ab-91, a human scFv built as VL, a 15-residue (Gly4Ser)3 linker, VH. Only the CDRs of the heavy chain vary.
VL: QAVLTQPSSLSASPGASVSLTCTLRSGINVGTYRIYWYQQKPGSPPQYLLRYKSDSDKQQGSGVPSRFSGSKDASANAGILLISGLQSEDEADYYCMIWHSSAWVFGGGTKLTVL
VH: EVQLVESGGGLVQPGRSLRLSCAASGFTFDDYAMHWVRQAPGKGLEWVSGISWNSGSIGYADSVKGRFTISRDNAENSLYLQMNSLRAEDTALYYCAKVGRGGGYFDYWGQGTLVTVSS

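In library AAYL51, one, two or three CDR residues were substituted; doubles and triples were drawn at random. The assay is AlphaSeq: two haploid yeast populations carry antibody and antigen on their surface. Pairs that bind mate more often; barcode pairs of the diploids are counted by sequencing. The ratio of observed to expected reads was calibrated, replicate by replicate, on BCL2-family standards whose Kd was known from biolayer interferometry. Mating was done three times.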

Each variant's VH is given in full. Affinities are written as log10 Kd with Kd in nM; a lower number is a better binder. The mean shown is taken over the replicates in which the pair was detected. An entry "ND" has no value in the source: the pair was not observed among the diploids in that replicate. This suggests poor binding but is not conclusive.

{"VH": "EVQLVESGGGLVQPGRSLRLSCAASGFTFRDYAMHWVRQAPGKGLEWVSGISWNSGSIGYADSVKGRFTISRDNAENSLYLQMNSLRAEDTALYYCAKVHRGGGYFDYWGQGTLVTVSS", "log10 Kd, replicates": "ND / ND / 3.62", "log10 Kd (nM), mean": "3.62", "empty controls": "3/9 (4.74)"}
{"VH": "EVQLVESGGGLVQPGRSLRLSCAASGFTFVDYAMHWVRQAPGKGLEWVSGISWCSGSIGYADSVKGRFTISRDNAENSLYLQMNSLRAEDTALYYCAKVGRGGGMFDYWGQGTLVTVSS", "log10 Kd, replicates": "ND / ND / ND", "log10 Kd (nM), mean": "ND", "empty controls": "0/9"}
{"VH": "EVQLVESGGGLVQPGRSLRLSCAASGFAFMDYAMHWVRQAPGKGLEWVSGISWNSGSIGYADSVKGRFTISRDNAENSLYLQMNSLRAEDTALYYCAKVGRGGGYFDYWGQGTLVTVSS", "log10 Kd, replicates": "1.31 / 1.33 / 0.38", "log10 Kd (nM), mean": "1.00", "empty controls": "4/9 (4.30)"}
{"VH": "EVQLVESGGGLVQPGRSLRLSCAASGFTFDDYAQHWVRQAPGKGLEWVSGSSWNSGSIGYADSVKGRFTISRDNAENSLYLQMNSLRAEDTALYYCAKLGRGGGYFDYWGQGTLVTVSS", "log10 Kd, replicates": "ND / 4.69 / ND", "log10 Kd (nM), mean": "4.69", "empty controls": "4/9 (4.58)"}
{"VH": "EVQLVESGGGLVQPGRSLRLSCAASGFTFDDYFMHWVRQAPGKGLEWVSGISWVSGSIGYSDSVKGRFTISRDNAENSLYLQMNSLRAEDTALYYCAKVGRGGGYFDYWGQGTLVTVSS", "log10 Kd, replicates": "ND / ND / ND", "log10 Kd (nM), mean": "ND", "empty controls": "0/9"}
{"VH": "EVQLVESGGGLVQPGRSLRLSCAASGFTFFDYWMHWVRQAPGKGLEWVSGISWNSGSIGFADSVKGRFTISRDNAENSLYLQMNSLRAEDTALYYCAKVGRGGGYFDYWGQGTLVTVSS", "log10 Kd, replicates": "ND / ND / ND", "log10 Kd (nM), mean": "ND", "empty controls": "4/9 (3.78)"}
{"VH": "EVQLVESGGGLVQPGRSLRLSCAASGFTFDDYAMHWVRQAPGKGLEWVSGISWNSGSINYCDSVKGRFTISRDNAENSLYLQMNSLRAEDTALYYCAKVGRGVGYFDYWGQGTLVTVSS", "log10 Kd, replicates": "ND / ND / ND", "log10 Kd (nM), mean": "ND", "empty controls": "1/9 (3.74)"}
{"VH": "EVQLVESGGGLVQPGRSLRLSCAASGFTFDDYAMHWVRQAPGKGLEWVSGISWNSGSIGTATSHKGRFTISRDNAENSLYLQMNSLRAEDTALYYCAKVGRGGGYFDYWGQGTLVTVSS", "log10 Kd, replicates": "ND / ND / ND", "log10 Kd (nM), mean": "ND", "empty controls": "3/9 (4.78)"}
{"VH": "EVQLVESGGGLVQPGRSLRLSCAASGFTFDDYMMDWVRQAPGKGLEWVSGISWNSGSIGYADSVKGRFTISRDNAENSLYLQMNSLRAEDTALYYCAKVGRGGGYYDYWGQGTLVTVSS", "log10 Kd, replicates": "ND / ND / ND", "log10 Kd (nM), mean": "ND", "empty controls": "0/9"}
{"VH": "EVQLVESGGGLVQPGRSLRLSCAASGFTFDDYAMHWVRQAPGKGLEWVSGISYNVGDIGYADSVKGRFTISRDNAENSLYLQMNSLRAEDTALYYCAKVGRGGGYFDYWGQGTLVTVSS", "log10 Kd, replicates": "4.40 / ND / 5.22", "log10 Kd (nM), mean": "4.81", "empty controls": "4/9 (4.94)"}
{"VH": "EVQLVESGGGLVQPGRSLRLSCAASGFTFDDYHMHWVRQAPGKGLEWVSGISWNSGSLGYADSVKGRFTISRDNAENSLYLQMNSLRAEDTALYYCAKVGRGGGYYDYWGQGTLVTVSS", "log10 Kd, replicates": "ND / 4.49 / ND", "log10 Kd (nM), mean": "4.49", "empty controls": "0/9"}
{"VH": "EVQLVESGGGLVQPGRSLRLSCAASGWTFDDYAMHWVRQAPGKGLEWVSGISWNSGSIHYADSVKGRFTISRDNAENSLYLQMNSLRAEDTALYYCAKVGRKGGYFDYWGQGTLVTVSS", "log10 Kd, replicates": "4.58 / 6.66 / 5.61", "log10 Kd (nM), mean": "5.62", "empty controls": "8/9 (4.33)"}
{"VH": "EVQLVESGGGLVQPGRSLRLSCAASGFTFADYAMHWVRQAPGKGLEWVSGISWNSGSIGYADSVKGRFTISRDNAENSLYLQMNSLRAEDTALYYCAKVKRGGGYFDYWGQGTLVTVSS", "log10 Kd, replicates": "3.99 / 4.95 / ND", "log10 Kd (nM), mean": "4.47", "empty controls": "3/9 (3.93)"}
{"VH": "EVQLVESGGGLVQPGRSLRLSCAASGFTFDQYAMHWVRQAPGKGLEWVSGISWNSGSIGYADSVKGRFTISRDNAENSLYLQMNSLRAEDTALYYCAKVGGGGGYNDYWGQGTLVTVSS", "log10 Kd, replicates": "2.95 / 4.62 / 4.28", "log10 Kd (nM), mean": "3.95", "empty controls": "0/9"}

From the list, the first 2 with no signal in any replicate:

{"VH": "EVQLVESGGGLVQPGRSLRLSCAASGFTFVDYAMHWVRQAPGKGLEWVSGISWCSGSIGYADSVKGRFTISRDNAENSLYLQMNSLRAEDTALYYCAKVGRGGGMFDYWGQGTLVTVSS", "log10 Kd, replicates": "ND / ND / ND", "log10 Kd (nM), mean": "ND", "empty controls": "0/9"}
{"VH": "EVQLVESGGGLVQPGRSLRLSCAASGFTFDDYFMHWVRQAPGKGLEWVSGISWVSGSIGYSDSVKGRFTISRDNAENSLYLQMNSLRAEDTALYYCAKVGRGGGYFDYWGQGTLVTVSS", "log10 Kd, replicates": "ND / ND / ND", "log10 Kd (nM), mean": "ND", "empty controls": "0/9"}

For reference, the parent read 1.86 as the reference entry and 0.88 as a member of this library. As a blank, each scFv also met three strains without target: over library AAYL51, 21% of these pairings were detected, typically at 4.54 and seldom below 3.26. For each scFv, signals with the empty controls are counted beside the result, with their mean in brackets.

Data: MIT Lincoln Laboratory AlphaSeq set, Engelhart et al. 2022, doi:10.1038/s41597-022-01779-4, as distributed in FLAb.